Laboratory results from ChEMBL document CHEMBL5385848, “Discovery of novel hydroxyamidine based indoleamine 2,3-dioxygenase 1 (IDO1) and thioredoxin reductase 1 (TrxR1) dual inhibitors” (Eur J Med Chem, 2023).

How the values were obtained:
[1] = Selectivity ratio of IC50 for inhibition of TDO (unknown origin) to IC50 for inhibition of recombinant human IDO1
[2] = Selectivity ratio of IC50 for inhibition of IDO2 (unknown origin) to IC50 for inhibition of recombinant human IDO1

`O=C(Cc1ccc(O)cc1)Nc1nnc(CCCNc2nonc2/C(=N\O)Nc2ccc(F)c(Br)c2)s1` gave a Ratio IC50 [1] of 903 and a Ratio IC50 [2] of 370.
